A short description of the data set: plasma pharmacokinetics (elimination half-life, dose proportionality of Cmax and AUC). Conditions: over a range of 5 mg-500 mg.

The source of these data is patent publication US11918551B2, “Methods of treating seizure disorders and Prader-Willi syndrome” (Ovid Therapeutics, Inc., priority 2017, dated 2024).

As for `N[C@H]1C[C@@H](C(=O)O)CC1=C(F)F`, the Cmax dose proportionality entry is listed as “increases in a dose proportional manner”.
